## CycPeptMPDB entries from one study

Data: CycPeptMPDB; original report Furukawa et al. 2016, doi:10.1021/acs.jmedchem.6b01246.

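Conditions beyond the assay type are not listed; see the original paper. Other peptides of the study may be missing here. Peptides that the database sets to -10, its floor, are left out.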

PAMPA measures passive passage through an artificial lipid membrane. P is given in units of 10^-6 cm/s (from log10 values with two decimals); larger means faster passage.

CCCC[C@@H]1NC(=O)[C@H](CC(C)C)N(C)C(=O)CN(CCCN2CCCC2=O)C(=O)[C@H](C)NC(=O)CN(CC)C(=O)[C@H]2CCCN2C1=O has PAMPA 0.0052 × 10^-6 cm/s. CCCC[C@@H]1NC(=O)[C@H](CC(C)C)N(C)C(=O)CN(CCCc2cnn(C)c2)C(=O)[C@H](C)NC(=O)CN(CCCCc2ccccc2)C(=O)[C@H]2CCCN2C1=O is reported with PAMPA 2.4 × 10^-6 cm/s. CCCC[C@@H]1NC(=O)[C@H](CC(C)C)N(C)C(=O)CN(CCOC)C(=O)[C@H](Cc2ccccc2)NC(=O)CN(CC)C(=O)[C@H]2CCCN2C1=O has PAMPA 4 × 10^-6 cm/s. The entry for CCCC[C@@H]1NC(=O)[C@H](CC(C)C)N(C)C(=O)CN(CCCc2cnn(C)c2)C(=O)[C@H](Cc2ccc3ccccc3c2)NC(=O)CN(CCCCc2ccccc2)C(=O)[C@H]2CCCN2C1=O lists PAMPA 0.01 × 10^-6 cm/s. CCCC[C@@H]1NC(=O)[C@H](CC(C)C)N(C)C(=O)CN(CC2CCCCC2)C(=O)[C@H](C)NC(=O)CN(Cc2cc(CC(C)C)on2)C(=O)[C@H]2CCCN2C1=O has PAMPA 4.1 × 10^-6 cm/s. Listed for CCCC[C@@H]1NC(=O)[C@H](CC(C)C)N(C)C(=O)CN(CCOc2ccccc2)C(=O)[C@H](Cc2ccccc2)NC(=O)CN(CCC)C(=O)[C@H]2CCCN2C1=O: PAMPA 0.89 × 10^-6 cm/s. Listed for CCCC[C@@H]1NC(=O)[C@H](CC(C)C)N(C)C(=O)CN(CCCc2cnn(C)c2)C(=O)[C@H](Cc2ccccc2)NC(=O)CN(CCCCc2ccccc2)C(=O)[C@H]2CCCN2C1=O: PAMPA 0.48 × 10^-6 cm/s.

Listed for CCCC[C@@H]1NC(=O)[C@H](CC(C)C)N(C)C(=O)CN(CCOc2ccccc2)C(=O)[C@H](C)NC(=O)CN(CC(C)C)C(=O)[C@H]2CCCN2C1=O: PAMPA 8.9 × 10^-6 cm/s. Listed for CCCC[C@@H]1NC(=O)[C@H](CC(C)C)N(C)C(=O)CN(CCCc2ccccc2)C(=O)[C@H](C)NC(=O)CN(Cc2ccc3c(c2)OCO3)C(=O)[C@H]2CCCN2C1=O: PAMPA 5.4 × 10^-6 cm/s. The entry for CCCC[C@@H]1NC(=O)[C@H](CC(C)C)N(C)C(=O)CN(CC2CCOCC2)C(=O)[C@H](CC(C)C)NC(=O)CN(CCN2CCOCC2)C(=O)[C@H]2CCCN2C1=O lists PAMPA 0.13 × 10^-6 cm/s. Listed for CCCCCN1CC(=O)N(C)[C@@H](CC(C)C)C(=O)N[C@@H](CCCC)C(=O)N2CCC[C@@H]2C(=O)N(Cc2ccccc2Cn2cccn2)CC(=O)N[C@@H](Cc2ccc3ccccc3c2)C1=O: PAMPA 0.016 × 10^-6 cm/s. For CCCC[C@@H]1NC(=O)[C@H](CC(C)C)N(C)C(=O)CN(CCOC)C(=O)[C@H](C)NC(=O)CN(Cc2ccc3c(c2)OCO3)C(=O)[C@H]2CCCN2C1=O the data give PAMPA 1.2 × 10^-6 cm/s. Listed for CCCC[C@@H]1NC(=O)[C@H](CC(C)C)N(C)C(=O)CN(CCCc2cnn(C)c2)C(=O)[C@H](CC(C)C)NC(=O)CN(CCC)C(=O)[C@H]2CCCN2C1=O: PAMPA 2.6 × 10^-6 cm/s. CCCC[C@@H]1NC(=O)[C@H](CC(C)C)N(C)C(=O)CN(CCCN2CCCC2=O)C(=O)[C@H](Cc2ccc3ccccc3c2)NC(=O)CN(CCCOC(C)C)C(=O)[C@H]2CCCN2C1=O is reported with PAMPA 1.5 × 10^-6 cm/s.

For CCCC[C@@H]1NC(=O)[C@H](CC(C)C)N(C)C(=O)CN(CCOC)C(=O)[C@H](Cc2ccc3ccccc3c2)NC(=O)CN(Cc2ccc(Cl)cc2)C(=O)[C@H]2CCCN2C1=O the data give PAMPA 0.015 × 10^-6 cm/s. Listed for CCCC[C@@H]1NC(=O)[C@H](CC(C)C)N(C)C(=O)CN(CCCN2CCCC2=O)C(=O)[C@H](C)NC(=O)CN(CC(C)C)C(=O)[C@H]2CCCN2C1=O: PAMPA 0.024 × 10^-6 cm/s. CCCC[C@@H]1NC(=O)[C@H](CC(C)C)N(C)C(=O)CN(CCCN2CCCC2=O)C(=O)[C@H](CC(C)C)NC(=O)CN(CCC)C(=O)[C@H]2CCCN2C1=O has PAMPA 0.29 × 10^-6 cm/s. The entry for CCCCCN1CC(=O)N(C)[C@@H](CC(C)C)C(=O)N[C@@H](CCCC)C(=O)N2CCC[C@@H]2C(=O)N(CCC)CC(=O)N[C@@H](CC(C)C)C1=O lists PAMPA 5.9 × 10^-6 cm/s. For CCCC[C@@H]1NC(=O)[C@H](CC(C)C)N(C)C(=O)CN(CCc2cccnc2)C(=O)[C@H](CC(C)C)NC(=O)CN(CCCCc2ccccc2)C(=O)[C@H]2CCCN2C1=O the data give PAMPA 2.1 × 10^-6 cm/s. Listed for CCCC[C@@H]1NC(=O)[C@H](CC(C)C)N(C)C(=O)CN(Cc2ccccc2)C(=O)[C@H](Cc2ccc3ccccc3c2)NC(=O)CN(CCCCc2ccccc2)C(=O)[C@H]2CCCN2C1=O: PAMPA 0.0011 × 10^-6 cm/s. The entry for CCCC[C@@H]1NC(=O)[C@H](CC(C)C)N(C)C(=O)CN(CC2CCCCC2)C(=O)[C@H](CC(C)C)NC(=O)CN(Cc2ccccc2Cn2cccn2)C(=O)[C@H]2CCCN2C1=O lists PAMPA 0.49 × 10^-6 cm/s.

Listed for CCCC[C@@H]1NC(=O)[C@H](CC(C)C)N(C)C(=O)CN(CCCN2CCCC2=O)C(=O)[C@H](Cc2ccc3ccccc3c2)NC(=O)CN(CC)C(=O)[C@H]2CCCN2C1=O: PAMPA 1.4 × 10^-6 cm/s. CCCC[C@@H]1NC(=O)[C@H](CC(C)C)N(C)C(=O)CN(CCOC)C(=O)[C@H](C)NC(=O)CN(CCCCc2ccccc2)C(=O)[C@H]2CCCN2C1=O has PAMPA 6.5 × 10^-6 cm/s.

Again, the 2 entries with the lowest PAMPA:

For CCCC[C@@H]1NC(=O)[C@H](CC(C)C)N(C)C(=O)CN(Cc2ccccc2)C(=O)[C@H](Cc2ccc3ccccc3c2)NC(=O)CN(CCCCc2ccccc2)C(=O)[C@H]2CCCN2C1=O the data give PAMPA 0.0011 × 10^-6 cm/s.
For CCCC[C@@H]1NC(=O)[C@H](CC(C)C)N(C)C(=O)CN(CCCN2CCCC2=O)C(=O)[C@H](C)NC(=O)CN(CC)C(=O)[C@H]2CCCN2C1=O the data give PAMPA 0.0052 × 10^-6 cm/s.